PMC12109561, “LPS2336, a New TREK-1 Channel Activator Identified by High Throughput Screening” (Biomolecules, 2025)

Amino acid sequences for entries named in this document (tags omitted). A change or cut given only in a name is not applied to a line headed by its entry.
UniProt O95069: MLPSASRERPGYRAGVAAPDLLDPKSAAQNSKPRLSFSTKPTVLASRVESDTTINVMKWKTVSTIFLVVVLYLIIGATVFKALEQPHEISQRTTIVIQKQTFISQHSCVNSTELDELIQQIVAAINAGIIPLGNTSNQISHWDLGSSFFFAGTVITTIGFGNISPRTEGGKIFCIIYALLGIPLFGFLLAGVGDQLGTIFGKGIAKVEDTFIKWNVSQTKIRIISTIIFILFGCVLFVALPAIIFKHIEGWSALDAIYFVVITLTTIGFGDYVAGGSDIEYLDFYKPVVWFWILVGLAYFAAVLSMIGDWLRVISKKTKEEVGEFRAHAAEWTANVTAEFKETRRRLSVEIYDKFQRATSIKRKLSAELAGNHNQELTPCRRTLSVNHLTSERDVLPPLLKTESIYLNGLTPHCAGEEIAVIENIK

Key:
[1] = Aqueous solubility (as observed)
hTREK-1 [2] = biological target: T1, hTREK-1 (Homo sapiens, UniProt O95069); assay: Thallium flux assay (FluxOR II Green) on HEK-hTREK-1 cells, incl. high throughput screening; conditions: 25 µM
hTREK-1 [3] = biological target: T1, hTREK-1; assay: Whole cell patch clamp on HEK-hTREK-1 cells; assay type: cell-based; conditions: 50 µM, vs vehicle

COc1ccc(C2Nc3ccccc3C(=O)N2c2ccccc2)cc1O (stereo not shown)
solubility in water [1]: poorly soluble in water
times over the positivity threshold (hTREK-1 [2]; HTS triplicates, threshold Z score 3): 1/3
average Z score in high throughput screening (hTREK-1 [2]; triplicates, relative to vehicle-treated wells, hit threshold 3): 2.68 ± 0.49
increase of mean current density recorded at 0 mV (hTREK-1 [3]): 6.01 fold
